From patent US9517229B2, “Treatment of breast cancer” (MEDIVATION PROSTATE THERAPEUTICS, INC., priority 2011, dated 2016)

System: SDF-1, progesterone receptor and androgen receptor gene expression
Experiment: E2-mediated upregulation of E2/ER regulated gene expression
Assay type: cell-based
Details: FIG. 4
[1] = presence or absence of estradiol (E2)

CNC(=O)c1ccc(N2C(=S)N(c3ccc(C#N)c(C(F)(F)F)c3)C(=O)C2(C)C)cc1F [RD162′, enzalutamide]
blocks E2-mediated upregulation: E2-mediated upregulation of androgen receptor | E2-mediated upregulation of SDF-1 gene expression [1] | E2-mediated upregulation of progesterone receptor gene expression [1]
